Measured values from PubChem BioAssay AID1346378 (National Center for Advancing Translational Sciences (NCATS), 2018).
Only a part is listed here, and it is no random draw. Calls of active or inactive are those of the source. Rule as the data show it: active = activity change below about -50%; inconclusive = mostly about -30% to -49%; inactive = weaker than that.
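For activity change, negative = inhibition in this document: -100% = wells without enzyme as full effect.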

Amino acid sequences for entries named in this document (tags omitted).
UniProt Q9BTU6, whole entry: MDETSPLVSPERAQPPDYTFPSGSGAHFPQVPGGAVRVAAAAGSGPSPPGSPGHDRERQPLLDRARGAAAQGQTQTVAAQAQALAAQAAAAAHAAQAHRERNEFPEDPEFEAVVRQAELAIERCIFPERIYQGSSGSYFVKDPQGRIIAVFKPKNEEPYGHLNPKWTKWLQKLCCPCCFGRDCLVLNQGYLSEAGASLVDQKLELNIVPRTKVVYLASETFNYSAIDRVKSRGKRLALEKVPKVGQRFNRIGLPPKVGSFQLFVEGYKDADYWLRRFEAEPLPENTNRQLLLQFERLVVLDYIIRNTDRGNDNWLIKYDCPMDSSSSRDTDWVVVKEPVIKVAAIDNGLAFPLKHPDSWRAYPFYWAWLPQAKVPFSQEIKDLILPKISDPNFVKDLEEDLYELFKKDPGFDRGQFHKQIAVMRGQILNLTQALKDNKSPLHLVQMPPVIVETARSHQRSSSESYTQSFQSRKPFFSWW

What follows are molecules tested against Phosphatidylinositol 4-kinase type 2-alpha (Homo sapiens) (UniProt Q9BTU6) (assay: qHTS for small molecular inhibitors of PI4K2A). Details: purified PI4K2A, ADP-Glo luminescence, 1 h; at 76.9 µM, hits give low values.
Source text: The phosphatidylinositol 4-phosphate (PI4P) is emerging as a key regulator of lipid transfer in ER-membrane contact sites. The four different phosphatidylinositol 4-kinase (PI4K) enzymes generate PI4P in different membrane compartments supporting distinct cellular processes many of which are crucial for the maintenance of cellular integrity but also hijacked by intracellular pathogens. The goal of this screening project is to search for small molecular inhibitors of PI4K2A based on a high throughput screening strategy.The ADP-Glo assay was used as a starting point to develop a miniaturized version for HTS applications. To implement the HTS screen, the PI4K ADP-Glotrade mark Kinase assay (Promega, V9102) was miniaturized for the 1536-well format used at NCGC.
For the robotic screening, the ADP-Glo assay using the ADP-Glotrade mark Kinase Assay kit from Promega was miniaturized and optimized on 1536-well white solid bottom plates (Greiner Bio-one). The substrate, 1.2 mM PI, prepared in the assay buffer (40mM Tris pH7.5, 20mM MgCl2, 1mM EGTA, 0.4% Triton X-100, 0.5mM DTT, 0.5mg/ml BSA) and PI4K2A enzyme, diluted also in the assay buffer to 4ug/mL, were dispensed onto the plates in equal volumes (1microl/well), pinned with 23 nL/well tested compounds or control followed by dispensation of 1microl/well 300microM ATP. The plates were incubated for one hour. Then, 2 µL/well of ADP-Glo reagent was added and incubated for 40 minutes. Next, 4microL/well of Kinase Detection Buffer was added to the plates and incubated for additional 40 minutes. All incubation steps were performed at ambient temperature. The resulting luminescence signal was measured on Viewlux plate reader (PerkinElmer). Adenosine, a partial non-specific inhibitor, was used as a positive control at 100microM final concentration to assess the assay's quality and plate-to-plate reproducibility. We also used "no enzyme" control to gauge the assay's maximal potential inhibition (IC100).
For `CCC(=O)N(c1ccccc1)C1(COC)CCN(CCn2nnn(CC)c2=O)CC1`, the activity change, negative = inhibition was inactive: -0.883% and the outcome was “inactive”.
For `CCC(=O)N(c1ccccc1)C1(COC)CCN(CCc2cccs2)CC1`, the activity change, negative = inhibition was inactive: 1.63% and the outcome was “inactive”.
For `CN(CCCl)CCCl`, the activity change, negative = inhibition was inactive: -4.8%.
